Only a part is listed here, and it is no random draw. Some results for these compounds are left out of this collection, so the calls shown say nothing about other tests. Calls of active or inactive are those of the source. Rule as the data show it: active = z-score below about -2 (passing the limit was not always enough); inactive = the rest.
Test: PubChem AID 504770
Settings: E. coli YBA685 rctB-dependent plasmid, OD600 growth, 3 h; stronger effect = lower value

SMILES	z-score
COc1ccc(OC)c(C=C(C#N)C#N)c1	inactive: -1.25
CN(C)c1ccc(C(=O)NCC2(N(C)C)CCCCC2)cc1	inactive: -0.8
O=C(NCC1(N2CCOCC2)CCCCC1)c1cnc(Cl)c(Cl)c1	inactive: 0.05
O=C(NCC1(N2CCCCC2)CCCCC1)c1ccc2c(c1)OCCO2	inactive: -0.1
CN1C2CCC1CC(OC(=O)C(O)(c1ccccc1)c1ccccc1)C2 (stereo not drawn)	inactive: 0.05
O=C(OC1CN2CCC1CC2)C(CO)(c1ccccc1)c1ccccc1 (stereo not drawn)	inactive: -1.2
N#CC(C#N)=Cc1ccccc1	inactive: -0.95
CN(C)C1(CNC(=O)c2ccncc2)CCCCC1	inactive: 0.1
